Results on 22 molecules are retold here after PubChem BioAssay AID2675 (National Center for Advancing Translational Sciences (NCATS), 2010).

Chains of the proteins cited; added tags and fusions are not shown.
UniProt Q9NR56, whole entry: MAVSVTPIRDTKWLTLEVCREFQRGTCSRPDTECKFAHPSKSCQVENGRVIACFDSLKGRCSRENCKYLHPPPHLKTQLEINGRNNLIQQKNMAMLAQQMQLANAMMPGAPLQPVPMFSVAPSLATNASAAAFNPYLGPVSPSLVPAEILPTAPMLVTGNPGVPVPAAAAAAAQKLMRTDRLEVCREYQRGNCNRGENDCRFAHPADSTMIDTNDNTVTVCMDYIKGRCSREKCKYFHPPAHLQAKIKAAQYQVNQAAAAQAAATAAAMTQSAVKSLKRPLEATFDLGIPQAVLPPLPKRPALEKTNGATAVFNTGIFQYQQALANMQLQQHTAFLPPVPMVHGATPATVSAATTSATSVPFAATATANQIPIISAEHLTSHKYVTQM

The entries are a selection whose mix differs from that of the whole data set. Some tests of the compounds listed are not included; inactive here does not mean inactive elsewhere. Results filed as inconclusive are left out. Active and inactive are the calls of the source. Calls come from the whole dose curve; as a rule, active = well fitted inhibition curve with a large enough effect in the signal ratio, with a control signal flat (not every such curve was filed as active); inconclusive = small, poorly fitted or top-dose-only effect, or effect the other way, or a change in a side signal; inactive = no such curve, though single readings can be large or run the other way; the % refers to the signal ratio.
% is set by controls: 0 for no effect and ±100 for the full control effect.

The target in this assay is Muscleblind-like protein 1 (Homo sapiens) (UniProt Q9NR56). Nature of the assay: qHTS Assay for Inhibitors of MBNL1-poly(CUG) RNA binding. Particulars: TR-FRET MBNL1-His/biotin-(CUG)12 binding, 665/545 ratio; at 57.5 µM (top of the series). (In qHTS, concentration-response curves come from the screen itself.)
`O=C(NCC1(N2CCCCC2)CCCCC1)c1cccc(Cl)c1`: the activity change, negative = inhibition was inactive: 1.55%.

For the molecule `COc1cccc(C(=O)NCC2(N3CCCCC3)CCCCC2)c1`, the activity change, negative = inhibition was inactive: -7.64%.

Regarding `COc1ccc(Cl)cc1C(=O)NCC1(N(C)C)CCCCC1`, the activity change, negative = inhibition is inactive: -3.22%.

For `CN(C)C1(CNC(=O)c2ccc(Br)cc2)CCCCC1`, the activity change, negative = inhibition is inactive: -0.239%.

As for `CC(C)Oc1ccc(C(=O)NCC2(N(C)C)CCCCC2)cc1`, the activity change, negative = inhibition is inactive: -4.6%.

In the case of `CN(C)c1cccc(C(=O)NCC2(N(C)C)CCCCC2)c1`, the activity change, negative = inhibition was inactive: -9.86%.

For the molecule `O=C(OC1CN2CCC1CC2)C(CO)(c1ccccc1)c1ccccc1` (configuration not stated), the activity change, negative = inhibition was inactive: -4.48%.

With `Cc1ccc(C(=O)NCC2(N3CCCCC3)CCCCC2)cc1`, the activity change, negative = inhibition is inactive: -5.66%.

Take `CCN(CC)CC(C)C(C)OC(=O)C(O)(c1ccccc1)c1ccccc1` (configuration not stated): the activity change, negative = inhibition is inactive: 1.31%.

For `COc1cc(SC)ccc1C(=O)NCC1(N(C)C)CCCCC1`, the activity change, negative = inhibition is inactive: -1.04%.

As for `CC(C)N1C(=O)CC2(CCN(CCOC(=O)C(O)(c3ccccc3)c3ccccc3)CC2)C1=O`, the activity change, negative = inhibition was inactive: -1.24%.

As for `CN1[C@@H]2CC[C@H]1CC(OC(=O)C(O)(c1ccccc1)c1ccccc1)C2` (some centres not stated), the activity change, negative = inhibition is inactive: -2.82%.

As to `O=C(NCC1(N2CCCCC2)CCCCC1)c1cc([N+](=O)[O-])ccc1Cl`, the activity change, negative = inhibition was inactive: 15.8%.

On to `COc1ccc(C(=O)NCC2(N(C)C)CCCCC2)cc1`, for which the activity change, negative = inhibition is inactive: 0.695%.

Consider `Cc1cc(C(=O)NCC2(N3CCCCC3)CCCCC2)ccc1[N+](=O)[O-]`, for which the activity change, negative = inhibition is inactive: 5.98%.

For the molecule `CCN1CCCC(OC(=O)C2(O)c3ccccc3C=Cc3ccccc32)C1` (configuration not stated), the activity change, negative = inhibition is inactive: 2.47%.

Regarding `O=C(NCC1(N2CCCCC2)CCCCC1)c1cccc(Br)c1`, the activity change, negative = inhibition was inactive: -5.83%.

`C=CCN1CCN(CCOC(=O)C(O)(c2ccccc2)c2ccccc2)CC1`: the activity change, negative = inhibition was inactive: -8.73%.

Take `O=C(NCC1(N2CCCCC2)CCCCC1)c1cc(F)c(F)cc1Cl`: the activity change, negative = inhibition is inactive: -3.53%.

As to `Cc1ccccc1C(=O)NCC1(N2CCCCC2)CCCCC1`, the activity change, negative = inhibition is inactive: -2.69%.

For `CN(C)C1CCCC1OC(=O)C(O)(c1ccccc1)c1ccccc1` (configuration not stated), the activity change, negative = inhibition is inactive: -7.84%.

For `CN(C)c1ccc(C(=O)NCC2(N(C)C)CCCCC2)cc1`, the activity change, negative = inhibition was inactive: -10.8%.
